Results on four substances are retold here after publication PMC3802530.

Protein sequences, listed by entry. Tags and fused reporters are not part of them. Residues count along the entry.
UniProt P54725, 315-361: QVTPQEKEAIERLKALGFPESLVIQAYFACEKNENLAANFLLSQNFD

Test [1] has as its target hHR23A UBA2 UBA2 (Homo sapiens) (UniProt P54725). Kind of test: NMR.
The target is the same in test [2]. The conditions noted are these: cited from earlier work.
The target is the same in test [3]. Particulars: cited from earlier work. The source holds these as a separate data set.

pKd: −log10 of the molar value. Like-named read-outs stand apart in the source and are kept apart here. Where only a bound is given, the exact number is not on record here.

By pKd is commonly meant the negative decadic logarithm of the Kd, by convention in mol/L. Regarding K11-Ub2 distal Ub (from UniProt P0CG47), the pKd in test [1] is 3.81.
Regarding “K11-Ub2 proximal Ub (from UniProt P0CG47)”, the pKd in test [1] is 3.71.
Turning to K48-Ub2 (from UniProt P0CG47), the pKd in test [2] is 4.74.
As to K63-Ub2 (from UniProt P0CG47), the pKd in test [3] was below 3.70.
